Test system: vascular permeability in guinea pig skin
Details: in vivo

VEGF was tested, and the “induction of vascular permeability” value was “induced vascular permeability”.
